Test results from ChEMBL document CHEMBL1687705, “Design, Synthesis, and in Vitro Evaluation of Novel Aminomethyl-pyridines as DPP-4 Inhibitors” (ACS Med Chem Lett, 2010).

Protein sequences, listed by entry. Tags and fused reporters are not part of them. Lines headed by an entry give the natural chain unless they say otherwise; changes in a name come on top.
UniProt Q6V1X1: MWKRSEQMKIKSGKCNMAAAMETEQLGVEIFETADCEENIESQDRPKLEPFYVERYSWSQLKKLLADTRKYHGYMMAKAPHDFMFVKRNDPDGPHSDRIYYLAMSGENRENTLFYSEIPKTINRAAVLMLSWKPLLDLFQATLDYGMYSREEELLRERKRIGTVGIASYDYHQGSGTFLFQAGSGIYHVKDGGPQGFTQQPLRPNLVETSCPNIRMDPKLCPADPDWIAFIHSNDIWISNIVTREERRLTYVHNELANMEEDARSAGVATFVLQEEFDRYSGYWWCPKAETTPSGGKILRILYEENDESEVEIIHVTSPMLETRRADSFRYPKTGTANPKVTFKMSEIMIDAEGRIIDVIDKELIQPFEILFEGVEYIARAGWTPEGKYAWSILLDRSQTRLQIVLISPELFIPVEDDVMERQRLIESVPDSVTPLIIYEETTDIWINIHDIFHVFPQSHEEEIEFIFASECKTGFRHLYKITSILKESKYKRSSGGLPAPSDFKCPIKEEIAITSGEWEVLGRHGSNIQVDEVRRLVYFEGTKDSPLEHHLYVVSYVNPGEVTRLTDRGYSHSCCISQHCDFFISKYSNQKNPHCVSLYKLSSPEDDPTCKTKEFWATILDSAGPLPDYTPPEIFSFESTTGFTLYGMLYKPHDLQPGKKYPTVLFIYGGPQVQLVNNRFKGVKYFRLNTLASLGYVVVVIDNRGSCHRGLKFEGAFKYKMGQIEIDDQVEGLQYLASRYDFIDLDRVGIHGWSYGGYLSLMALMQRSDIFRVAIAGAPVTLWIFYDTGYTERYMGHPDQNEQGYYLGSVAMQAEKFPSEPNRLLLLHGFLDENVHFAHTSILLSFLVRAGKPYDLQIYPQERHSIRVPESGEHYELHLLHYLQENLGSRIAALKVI

Biological target: Dipeptidyl peptidase 8 (Homo sapiens, UniProt Q6V1X1)
Test: Inhibition of human recombinant DPP8 assessed as Gly-Pro-pNA chromogenic substrate cleavage for 16 mins preincubated with compound for 10 mins before addition of chromogenic substrate

In the case of `CC[C@H](C)[C@H](N)C(=O)N1CCC[C@H]1C(=O)N[C@H](C(=O)O)[C@@H](C)CC` [DIPROTIN A], the Ki is reported as 39 µM.
